Measurements from US12479848B2, “Substituted fused heteroaromatic bicyclic compounds as kinase inhibitors and the use thereof” (IMPACT THERAPEUTICS (SHANGHAI), INC, priority 2019, dated 2025).

Assays:
Type in all cases: cell-based
[1] = tested on: human prostate cancer cell DU145; assay: MTT proliferation assay, DU145; settings: DU-145, 96 h, read-out: IC50 (nM), inhibition of proliferation of DU145
Method: The cells were digested by trypsinase and centrifuged at 800 rpm for 5 minutes, the supernatant was discarded, and the residual was resuspended with fresh medium (DMEM medium+10% FBS+non-essential amino acid) and counted. The cells were seeded into 96-well cell culture plate with a density of 2000 cells per well and incubated overnight in a 5% CO2 incubator at 37° C. […] 5 μL of each concentration was added to 120 μL of medium (25 times diluted) and mixed by shaking. The overnight cell plates were taken and the culture medium was removed, 195 μL of fresh medium was added to each well, and 5 μL of diluted medium containing the corresponding concentration of the test compound was added respectively (the final concentrations of compounds are shown in Table 3, the final concentration of DMSO is 1%), and the culture plate was then placed in a 5% CO2 incubator at 37° C. for 4 days. After removing the original solution, 100 μL of fresh serum-free DMEM medium containing MTT (0.5 mg/mL) was added to each well, the culture was continued. […] GraphPad Prism 6.0 was used to analyze the data. The inhibitory activity of compounds on cell proliferation was plotted based on cell viability and the logarithm of compound concentration. Cell viability %=(ODcompound−ODbackground)/(ODDMSO−ODbackground)×100.

[2] = tested on: human lung cancer cell NCI-H460; assay: MTT proliferation assay, NCI-H460; settings: NCI-H460, 96 h, read-out: IC50 (nM), inhibition of proliferation of NCI-H460
Method: (§1) The cells were seeded into 96-well cell culture plate with a density of 2000/4000 cells per well and incubated overnight in a 5% CO2 incubator at 37° C. […] 5 L diluent of each concentration was added to 120 μL of medium (25 times diluted) and mixed by shaking. The overnight cell plates were taken and the culture medium was removed, 195 μL of fresh medium was added to each well, and 5 μL of diluted medium containing the corresponding concentration of the test compound was added respectively (the final concentration of DMSO is 1%), and the culture plate was then placed in a 5% CO2 incubator at 37° C. for 4 days. After removing the original solution, 100 μL of fresh serum-free DMEM medium containing MTT (0.5 mg/mL) was added to each well, the culture was continued. […] Cell viability (%)=(ODcompound−ODbackground)/(ODDMSO−ODbackground)×100. GraphPad Prism 6.0 was used to analyze the data. The inhibitory activity of compounds on cell proliferation was plotted based on cell viability and the logarithm of compound concentration.

[3] = tested on: human colon cancer cell LoVo; assay: MTT proliferation assay, LoVo; settings: 96 h, read-out: IC50 (nM), inhibition of proliferation of LoVo
Method: as §1, with “5 μL” for “5 L”, “viability (%)=(ODcompound−ODbackground)/(ODDMSO-ODbackground)×100.” for “viability (%)=(ODcompound−ODbackground)/(ODDMSO−ODbackground)×100.”

## C[C@@H]1COCCN1c1cc(-c2ccnn2C)c2ccnc(-c3ccn[nH]3)c2n1 [BAY-1895344, reference compound]
[1]
  IC50: 33.9 nM
[2]
  IC50: 21.5 nM
[3]
  IC50: 26 nM
